Experimental data as given in patent publication US10906910B2, “Substituted bicyclic pyrimidine compounds with tubulin and multiple receptor inhibition” (Duquesne University of the Holy Spirit, priority 2014, dated 2021).

Amino acid sequences for entries named in this document (tags omitted). Residues count along the entry.
UniProt P09619, 33-1106, species assumed: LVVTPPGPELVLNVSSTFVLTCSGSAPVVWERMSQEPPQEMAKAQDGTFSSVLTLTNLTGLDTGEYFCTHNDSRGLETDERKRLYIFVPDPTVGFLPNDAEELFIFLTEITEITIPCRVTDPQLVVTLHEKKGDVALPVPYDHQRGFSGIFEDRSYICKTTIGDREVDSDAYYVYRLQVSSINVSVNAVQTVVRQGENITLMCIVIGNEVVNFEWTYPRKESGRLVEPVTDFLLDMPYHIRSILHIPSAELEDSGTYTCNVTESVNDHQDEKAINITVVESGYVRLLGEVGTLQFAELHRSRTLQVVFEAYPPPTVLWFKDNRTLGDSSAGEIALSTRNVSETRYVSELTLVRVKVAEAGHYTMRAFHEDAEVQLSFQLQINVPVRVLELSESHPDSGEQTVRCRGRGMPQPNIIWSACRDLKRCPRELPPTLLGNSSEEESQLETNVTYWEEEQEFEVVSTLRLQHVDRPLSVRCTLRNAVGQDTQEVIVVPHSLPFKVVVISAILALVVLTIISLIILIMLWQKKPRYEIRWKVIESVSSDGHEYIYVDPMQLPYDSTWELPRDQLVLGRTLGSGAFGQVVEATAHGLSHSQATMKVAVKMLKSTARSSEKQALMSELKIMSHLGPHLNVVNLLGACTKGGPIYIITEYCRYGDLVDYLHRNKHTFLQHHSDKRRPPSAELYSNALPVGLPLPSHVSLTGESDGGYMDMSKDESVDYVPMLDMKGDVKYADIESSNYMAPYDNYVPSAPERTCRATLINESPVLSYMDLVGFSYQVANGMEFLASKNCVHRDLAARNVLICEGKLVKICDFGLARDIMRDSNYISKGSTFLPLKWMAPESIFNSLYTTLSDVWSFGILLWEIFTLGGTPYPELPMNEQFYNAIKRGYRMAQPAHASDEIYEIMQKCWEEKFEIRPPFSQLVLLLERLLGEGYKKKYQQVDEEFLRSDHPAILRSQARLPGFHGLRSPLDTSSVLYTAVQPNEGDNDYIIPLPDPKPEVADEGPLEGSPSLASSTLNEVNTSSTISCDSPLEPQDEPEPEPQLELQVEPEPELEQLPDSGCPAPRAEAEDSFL

Target: PDGFRβ (Homo sapiens, UniProt P09619)
Assay: PDGFRβ kinase inhibition, whole-cell assay
Assay type: cell-based
Settings: read-out: kinase inhibition IC50 [whole-cell assays] PDGFRβ

For CN(C)c1ccc(/C=C2\C(=O)Nc3ccccc32)cc1 [DMBI, reference compound], the IC50 was 3.75 nM.
